Counter-ions that a name gives are not always drawn.
Columns and labels:
[1] = cited from earlier work
[2] = tested on: cyp2n13, 2r1, 2y3, and 3a65; assay: qPCR of CYP subtypes in 55 hpf larvae after inducer exposure; details: 100 µM
Description: (§1) Embryos were dechorionized, except in the case of those exposed to TCDD due to high transparency. […] 1,7-Dimethylxanthine, 4′-OHDF, 5-OHDF, and 6β-hydroxytestosterone were obtained from Sigma-Aldrich. DMSO was purchased from Nacalai Tesque (Kyoto, Japan).

cyp2y3 mRNA = details: 55 hpf larvae; exposure from 30 hpf; 100 µM rifampicin or phenobarbital
Description: as §1
Whole-mount in situ hybridization was performed as described previously. Paraformaldehyde-fixed embryos were hybridized with digoxigenin-incorporated antisense RNA probes of CYP subtypes at 65 °C overnight (DIG (digoxigenin) RNA Labeling Kit, Sigma-Aldrich). To obtain the CYP probes, CYP DNAs were amplified by PCR reaction with KOD FX Neo enzyme solution (Toyobo) with the primer sets listed in Table S2. This was followed by subcloning to pTAC2 TA vector (BioDynamics, Tokyo, Japan) and in vitro transcription with SP6 RNA polymerase (New England Biolabs, Ipswich, MA, USA). Following hybridization and washing, the embryos were incubated with anti-DIG antibody conjugated with alkaline phosphatase (Sigma-Aldrich) at 4 °C overnight. The color reaction was performed by incubation in BM Purple substrate or Fast Red (Sigma-Aldrich).

SMILES	Detection of the two metabolites of diclofenac ([1]; adult zebrafish liver microsomes, 1 h exposure)	Detection of the two metabolites of diclofenac, batches positive ([1]; microsomes of whole zebrafish larvae, only at 96 hpf)	Significant induction of cyp2n13, 2r1, 2y3, and 3a65 by qPCR [2]	cyp2y3 mRNA by in situ hybridization (liver and intestine locations) (cyp2y3 mRNA)
O=C(O)Cc1ccccc1Nc1c(Cl)cccc1Cl [diclofenac, diclofenac sodium salt]	detected	two of five batches		
CO[C@H]1/C=C/O[C@@]2(C)Oc3c(C)c(O)c4c(O)c(c(/C=N/N5CCN(C)CC5)c(O)c4c3C2=O)NC(=O)/C(C)=C\C=C\[C@H](C)[C@H](O)[C@@H](C)[C@@H](O)[C@@H](C)[C@H](OC(C)=O)[C@@H]1C [rifampicin]			not recognized	detectable
